Test [1] addresses GST-tagged wild-type human CRBN protein (Homo sapiens (Human), UniProt Q96SW2). Nature of the test: Cereblon Binding Assay (Cisbio Cereblon Binding Kit, TR-FRET). Particulars: about 3 hours at room temperature. As for the experimental part:
The binding to cereblon (CRBN) is determined using the Cereblon Binding Kit (Cisbio, #64BDCRBNPEG) following the manufacturer's instruction. Briefly, serially diluted compounds are incubated with GST-tagged wild-type human CRBN protein, XL665-labelled Thalidomide and Europium Cryptate labelled GST antibody.
The binding to cereblon (CRBN) was determined using the Cereblon Binding Kit (Cisbio, #64BDCRBNPEG) following the manufacturer's instruction. Briefly, serially diluted compounds were incubated with GST-tagged wild-type human CRBN protein, XL665-labelled Thalidomide and Europium Cryptate labelled GST antibody at room temperature for about 3 hours.

Protein sequences, listed by entry. Tags and fused reporters are not part of them. Lines headed by an entry give the natural chain unless they say otherwise; changes in a name come on top.
UniProt Q96SW2: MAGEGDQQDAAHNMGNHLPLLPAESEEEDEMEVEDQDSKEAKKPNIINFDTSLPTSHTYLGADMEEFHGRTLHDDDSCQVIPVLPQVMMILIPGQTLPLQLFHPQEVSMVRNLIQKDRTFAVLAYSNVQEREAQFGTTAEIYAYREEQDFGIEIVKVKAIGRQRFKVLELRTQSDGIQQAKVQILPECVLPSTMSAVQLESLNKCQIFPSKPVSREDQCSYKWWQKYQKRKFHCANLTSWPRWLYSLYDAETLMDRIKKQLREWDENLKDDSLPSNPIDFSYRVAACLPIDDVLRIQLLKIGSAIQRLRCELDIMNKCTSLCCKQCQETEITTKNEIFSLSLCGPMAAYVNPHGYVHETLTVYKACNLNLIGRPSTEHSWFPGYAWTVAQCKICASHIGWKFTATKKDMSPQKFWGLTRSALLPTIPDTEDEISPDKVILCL
UniProt Q9UKS7: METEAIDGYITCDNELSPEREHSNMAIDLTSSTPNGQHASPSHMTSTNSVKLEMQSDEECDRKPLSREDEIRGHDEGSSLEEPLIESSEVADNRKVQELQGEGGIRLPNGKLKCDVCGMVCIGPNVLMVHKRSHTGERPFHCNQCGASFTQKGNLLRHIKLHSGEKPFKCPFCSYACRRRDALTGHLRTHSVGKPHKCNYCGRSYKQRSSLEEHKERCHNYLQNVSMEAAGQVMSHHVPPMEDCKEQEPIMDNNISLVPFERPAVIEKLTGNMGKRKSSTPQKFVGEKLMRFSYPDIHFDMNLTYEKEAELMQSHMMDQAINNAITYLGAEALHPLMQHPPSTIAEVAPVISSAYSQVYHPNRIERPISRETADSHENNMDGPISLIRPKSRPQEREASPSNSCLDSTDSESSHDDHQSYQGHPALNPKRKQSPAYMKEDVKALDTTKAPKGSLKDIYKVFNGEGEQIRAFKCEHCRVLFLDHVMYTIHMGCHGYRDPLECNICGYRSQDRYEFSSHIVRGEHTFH

In the next test the target is IKZF2 (Homo sapiens (Human), UniProt Q96SW2+Q9UKS7). Nature of the test: IKZF2 HiBiT Assay (Jurkat-IKZF2-HiBiT cell line). In kind it is cell-based. Conditions: Jurkat-IKZF2-HiBiT cells, 24 hours; read-out: HiBit assay degradation analysis DC50. As for the experimental part:
Degradation of IKZF2 protein is determined by IKZF2 HiBiT assay using the Jurkat-IKZF2-HiBiT (Promega) cell line. Briefly, cells are seeded in culture medium. Compounds are serially diluted in culture medium, and certain volume of the diluted compounds is added to the appropriate well of the plate. After the addition of compounds, the cells are incubated. At the end of treatment, Nano-Glo HiBiT Lytic Detection Reagent (Promega) is added to each well, and then the plates are incubated at room temperature for a certain time period. The luminescent signal is measured using a CALRIOstar plate reader (BMG Labtech). The readings are normalized to the DMSO-treated cells and the IC50 is calculated by nonlinear regression (four parameters sigmoid fitted with variable slope, least squares fit, and no constraint) analysis using the GraphPad Prism 8 software.
Degradation of IKZF2 protein was determined by IKZF2 HiBiT assay using the Jurkat-IKZF2-HiBiT (Promega) cell line. […] The luminescent signal was measured using a CALRIOstar plate reader (BMG Labtech). The readings were normalized to the DMSO-treated cells and the IC50 was calculated by nonlinear regression (four parameters sigmoid fitted with variable slope, least squares fit, and no constraint) analysis using the GraphPad Prism 8 software.

The IC50 is the concentration at which inhibition is half-maximal. A higher IC50 goes with lower potency. For orientation: DC50 means the concentration at which degradation of the target reaches its halfway point.

Molecules are shown by their SMILES.

With `O=C1CCC(N2Cc3c(ccc4c3OCCC43CCNCC3)C2=O)C(=O)N1` (centres unmarked) [Compound A2, 3-(7′-oxo-2′,3′,7′,9′-tetrahydro-8′H-spiro[piperidine-4,4′-pyrano[2,3-e]isoindol]-8′-yl)piperidine-2,6-dione], the IC50 in test [1] fell in the range of 100 to 1000 nM. The DC50 on IKZF2 was above 500 nM. On to `O=C1CCC(N2Cc3c(ccc4c3COC43CCNCC3)C2=O)C(=O)N1` (centres unmarked) [Compound A258, 3-(6-oxo-6,8-dihydrospiro[furo[3,4-e]isoindole-3,4′-piperidin]-7(1H)-yl)piperidine-2,6-dione], for which the IC50 in test [1] is above 1000 nM. The same measure, in the same setting: the result for `CN1CC2(CCNCC2)c2ccc3c(c21)CN([C@H]1CCC(=O)NC1=O)C3=O` [Compound A306, (S)-3-(1′-methyl-6′-oxo-1′,2′,6′,8′-tetrahydro-7′H-spiro[piperidine-4,3′-pyrrolo[3,4-g]indol]-7′-yl)piperidine-2,6-dione] reads above 1000 nM. The molecule `O=C1CC[C@H](N2Cc3c(ccc4c3NCC43CCNCC3)C2=O)C(=O)N1` [Compound A307] showed an IC50 in test [1] above 1000 nM.

These data come from patent publication US20250215012A1, “IKZF2 DEGRADERS AND USES THEREOF” (REGENTS OF THE UNIVERSITY OF MICHIGAN, priority 2022, published 2025).
